The supplement of paper PMC11624193, “Coupling cellular drug-target engagement to downstream pharmacology with CeTEAM” (Nature Communications, 2024)
Structures can show the parent of a compound that is named as a salt. The entries are a selection whose mix differs from that of the whole data set.

Target: PARP1 L713F-nLuc biosensor (HCT116) (UniProt P09874)
Assay: PARP1 L713F-nLuc/akaLuc ratio relative to DMSO control (biosensor stabilization) (fold change); higher = more PARP1 biosensor stabilization (target engagement / stabilizer), active = hit call of the paper
Settings: stock concentration (mM; final µM = stock mM x 1): 10; 24 h;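 active = log2 fold change beyond 2 SD from the library mean after excluding viability outliers; inactive = within 2 SD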

| SMILES | PARP1 L713F-nLuc/akaLuc ratio |
| --- | --- |
| Cn1ncnc1[C@H]1c2n[nH]c(=O)c3cc(F)cc(c23)N[C@@H]1c1ccc(F)cc1 [Talazoparib] | active: 3.66 |
| Cn1ncnc1[C@H]1c2n[nH]c(=O)c3cc(F)cc(c23)N[C@@H]1c1ccc(F)cc1 [Talazoparib tosylate] | active: 3.37 |
